Patent US20260250416A1, “MUTANT OF ANTIBODY VARIABLE REGION, AND USE THEREOF” (SHENYANG PHARMACEUTICAL UNIVERSITY, priority 2022, published 2026)

Assay: Detection of free sulfhydryl groups in the antibody products using Ellman's method
Format: physicochemical
Settings: DTNB, OD 412 nm, antibody 5 mg/mL
Description: Ellman's method (Thermo Fisher Scientific (China) Inc.) is used in the present disclosure to detect the content of the free sulfhydryl groups in antibody products so as to select cell lines suitable for further conjugation. A 0.1M Na2HPO4 solution, a DTNB (10 mM) solution, and a cysteine standard solution with a final concentration of 0.0059 M~0.375 M were formulated. Antibody samples to be detected were also prepared at a concentration of 5 mg/mL. 250 μL 0.1M Na2HPO4 and 5 μL DTNB solutions were added into 1.5 mL EP tube containing the cysteine standard solution and the sample to be detected, vortexed and shaken to mix well and incubated for 5 min at room temperature. The OD value was detected at the wavelength of 412 nm. A standard curve was established based on the OD values, and the sulfhydryl content of the sample was calculated.

Row | Substance | the free sulfhydryl group %
1 | HC12C: Trastuzumab scFv, heavy chain position 12 (Kabat) to cysteine; VH SEQ ID NO: 8, VL SEQ ID NO: 5 | 93.22%
2 | WT: wild-type anti-HER2 Trastuzumab single chain antibody fragment, VH SEQ ID NO: 4, VL SEQ ID NO: 5 | 3.28%
